IC50 data for one compound are collected here from patent EP1166781A1, “PROTEASOME INHIBITORS” (KYOWA HAKKO KOGYO CO., LTD., priority 1999, dated 2000).

Structures are written as SMILES.

This assay addresses proteasome (Homo sapiens, UniProt P28074). Briefly: Proteasome inhibitory activity (Suc-Leu-Leu-Val-Tyr-AMC cleavage, crude enzyme solution from HeLa S3 cell extract). Particulars: crude proteasome fraction (>500K) from HeLa S3 cells; substrate Suc-Leu-Leu-Val-Tyr-AMC; 37°C for one hour; tested form: free.

Usually IC50 stands for the point on the concentration scale where inhibition reaches its midpoint.

`CCC(C)C1C(=O)OC1C(=O)NC1CC1CC(NC(=O)C(C)NC(=O)CO)C(=O)OCc1ccccc1` (stereo not shown): the IC50 turned out to be 41 nM.
